Literature values, collected in article PMC12197660 (Viruses, 2025).

Conditions: read-out: Plasma GS-441524 Cmax; GS-441524 IV 30 min infusion 20 mg/kg; mean ± SD, N = 3; cited from earlier work

For `N#C[C@@]1(c2ccc3c(N)ncnn23)O[C@H](CO)[C@@H](O)[C@H]1O` [GS-441524], the Cmax is listed as 79.2 µM.
